In data set [1] the test system is KS-1. The conditions noted are these: KS-1, Glioblastoma, 72 hours.
Data set [2] has as its system SUP-B15. As to conditions: SUP-B15, Acute lymphoid B-cell leukemia, 72 hours.
The subject of data set [3] is CCF-STTG1. The conditions noted are these: CCF-STTG1, Cerebral astrocytoma, 72 hours.
Data set [4] deals with CCRF-CEM. The conditions noted are these: Acute lymphoid T-cell leukemia, 72 hours.
Data set [5] has as its system SH-SY5Y cells. Nature of the data set: MTT cell viability of CBE-treated SH-SY5Y cells. As to conditions: 50 nM, 24 h.
A short description of data set [6]: Pharmacokinetics in male SD rats (single IV or oral gavage).
The test system of data set [7] is KG-1. Nature of the data set: Tumor cell proliferation (CellTiter-Glo). As to conditions: KG-1, Myeloma, 72 hours.
For data set [8], the system named is NAMALWA. Nature of the data set: Tumor cell proliferation (CellTiter-Glo). The conditions noted are these: Blood cancer, 72 hours.
For data set [9], the system named is K-562. As to the kind of experiment: Tumor cell proliferation (CellTiter-Glo). The conditions noted are these: K-562, Myeloma, 72 hours.
The test system of data set [10] is SK-OV-3. Nature of the data set: Tumor cell proliferation (CellTiter-Glo). It is filed as cell-based. The conditions noted are these: SK-OV-3, Ovarian cancer, 72 hours.
For data set [11], the system named is SK-HEP-1. As to the kind of experiment: Tumor cell proliferation (CellTiter-Glo). It is filed as cell-based. The conditions noted are these: SK-HEP-1, Liver cancer, 72 hours.
For data set [12], the system named is MRC-5 cells. As to the kind of experiment: MTT cell viability of TGF-β1-treated MRC-5 cells.
Data set [13] concerns α-SMA, Calponin1 and Collagen Type I expression in MRC-5 cells. As to the kind of experiment: Protein immunoblotting of fibrosis markers in TGF-β1-treated MRC-5 cells. As to conditions: MRC-5, 5 ng/mL TGFβ1, certain concentrations, 24 h.
Data set [14] has as its system RD. As to conditions: Malignant embryonal rhabdomyosarcoma, 72 hours.
Data set [15] relates to IMR-32. As to conditions: IMR-32, Neuroblastoma, 72 hours.
The subject of data set [16] is REH. The conditions noted are these: Acute non-B or non-T cell lymphoma, 72 hours.
The test system of data set [17] is NOMO-1. As to conditions: NOMO-1, Acute myeloid leukemia (AML), 72 hours.
Data set [18] relates to TT. As to conditions: Medullary thyroid carcinoma, 72 hours.
Data set [19] has as its system AN3 CA. The conditions noted are these: Adenocarcinoma of the endometrium, 72 hours.
In data set [20] the test system is HepG2 cells. As to the kind of experiment: Oil red O staining and triglycerides in oleic acid-treated HepG2 cells. As to conditions: HepG2, 0.5 mM oleic acid, 50 nM, 24 hr.
Data set [21] concerns myocardial primary fibroblasts. The conditions noted are these: 100 nM, anoxia 24 h; control 100%±5.0%, hypoxic group 137%±[…].
Data set [22] concerns ApoE−/− mice. As to the kind of experiment: Body weight and blood glucose of high-fat diet-fed ApoE−/− mice. As to conditions: 12 weeks.
Data set [23] has as its system HRMC cells (COL16A1, COL4A1, CTGF mRNA). As to the kind of experiment: RT-qPCR of fibrosis genes in TGF-β-treated renal mesangial cells. The conditions noted are these: HRMC cell, 100 nM, TGF-β 1 ng/mL, 24 hours.
Data set [24] concerns LX-2 cells (ACTA2, COL1A1, TGFβ1 mRNA). Nature of the data set: RT-qPCR of fibrosis genes in TGF-β-treated hepatic stellate cells. The conditions noted are these: LX-2 cell, 100 nM, TGF-β 5 ng/mL, 24 hours.
Data set [25] concerns NHCF-V cells (ACTA2, CTGF, PAI-1 mRNA). Nature of the data set: RT-qPCR of fibrosis genes in TGF-β-treated cardiac fibroblasts. As to conditions: NHCF-V cell, 100 nM, TGF-β 1 ng/mL, 24 hours.
Setting [26] is: single IV 0.1 mg/Kg (head: PAO 0.11, F2mPAO 0.08, d5PAO 0.09 mg/kg), mean.
The mark [27] stands for this setting: single oral gavage 0.2 mg/Kg (head: PAO 0.22, F2mPAO 0.17, d5PAO 0.19 mg/kg), mean.
The mark [28] stands for this setting: MRC-5, 5 ng/mL TGF-β1, different concentrations, 4 hours.

With `[2H]c1cc([2H])c([As]=O)c([2H])c1` (stereo not drawn), the IC50 in data set [1] came to 30.9 nM; in data set [2], 22.9 nM; in data set [3] it was 94.7 nM; in data set [4], 23.9 nM.
Consider 3,5-Difluoro-PAO, for which the “cell viability (MTT) versus 100 μM CBE-treated group” value in data set [5] is reported as “significantly increased”. In addition, in data set [6] (setting [26]), the AUC0-inf is 6976 ng·h/mL, the AUCExtra is recorded as 4.86%, the AUMCExtra is recorded as 32.7% and the C0 was 1943 ng/mL. Besides, in data set [6] (setting [26]), the MRT0-inf was determined as 10.81 h, the MRT0-last is reported as 7.62 h and the Tlast is recorded as 48.0 h. Also, in data set [6] (setting [27]), the AUC0-inf was found to be 6406 ng·h/mL, the AUCExtra is on record as 3.37%, the AUMCExtra is recorded as 12.5% and the MRT0-inf was 16.3 h. In data set [6] (setting [27]), this molecule registered an MRT0-last of 14.8 h and a Tlast of 48.0 h. Further, the Bioavailability in data set [6] (single oral gavage 0.2 mg/Kg versus IV 0.1 mg/Kg) was 45.9%. Further, in [7], the 50% inhibitory concentration (IC50) amounted to 85.3 nM. In addition, in data set [8], the IC50 turned out to be 39.3 nM. This molecule also yielded an IC50 in [9] of 59.3 nM. In data set [10], this molecule returned a half-maximal inhibitory concentration (IC50) of 159 nM. In [11], the half-maximal inhibitory concentration (IC50) was determined as 50.4 nM. Moreover, the “cell viability (MTT) versus 5 ng/mL TGF-β1-treated group” value in data set [12] (MRC-5, 5 ng/mL TGF-β1, 100 nM, 24 hours) is given as “significant decrease”. Further, the “cell viability (MTT) versus 5 ng/mL TGF-β1-treated group” value in [12] (setting [28]) was “no significant change”. For the same molecule, in data set [13], the “Calponin1 expression (immunoblotting) versus TGFβ1 alone” value is “significant decrease”.
Take `[2H]c1ccc([As]=O)c([2H])c1` (stereo not drawn): the concentration for half-maximal inhibition (IC50) in data set [14] is 25.7 nM; in data set [15], 24.1 nM; in data set [1], 45.9 nM; in data set [2], 33.6 nM; in data set [16] it was 22.4 nM; in [17] it was 59.4 nM. For the same molecule, the IC50 worked out at 130 nM in data set [3], 107 nM in data set [18], 40.7 nM in data set [19] and 31.9 nM in data set [4].
As for `O=[As]c1ccccc1` (stereo not drawn), the AUC0-last in [6] (setting [26]) is 4010 ng·h/mL; in data set [6] (setting [27]) it was 2314 ng·h/mL.
As to `[2H]c1c([2H])c([2H])c([As]=O)c([2H])c1[2H]` (stereo not drawn), the accumulation of triglycerides entry in data set [20] is on record as “significantly reduced”. Also, the AUC0-last in [6] (setting [26]) was found to be 4337 ng·h/mL; in data set [6] (setting [27]), 2445 ng·h/mL. Moreover, in data set [21], the “proliferative capacity of myocardiac fibroblasts (CCK8)” value is on record as 97.5%±3.9%. The “random, postprandial and fasting blood glucose” value in data set [22] is “reduced or tended to reduce”.
In the case of 3,4-Difluoro-PAO, the “Relative changes in mRNA levels (vs. TGF-β treatment), COL4A1” value in [23] is given as −74%. Further, in data set [23], the “Relative changes in mRNA levels (vs. TGF-β treatment), COL16A1” value is reported as −78%. The “Relative changes in mRNA levels (vs. TGF-β treatment), CTGF” value in data set [23] is given as −70%; in data set [25], −51%. Besides, the “Relative changes in mRNA levels (vs. TGF-β treatment), ACTA2” value in [24] is 21%; in data set [25] it was −69%. Further, the “Relative changes in mRNA levels (vs. TGF-β treatment), COL1A1” value in [24] is −15%. In addition, the “Relative changes in mRNA levels (vs. TGF-β treatment), TGFB1” value in [24] came to 3%. The half-inhibitory concentration (IC50) came to 84.2 nM in data set [7]; 31.3 nM in [8]; 48.6 nM in data set [9]; 42.1 nM in [1]; 113 nM in data set [10]; 43 nM in [11]. Further, the half-inhibitory concentration (IC50) in data set [18] was 120 nM; in [4] it was 33.8 nM. Besides, in data set [12] (setting [28]), the “cell viability (MTT) versus 5 ng/mL TGF-β1-treated group” value was “no significant change”. In data set [25], the “Relative changes in mRNA levels (vs. TGF-β treatment), PAI-1” value is recorded as −35%. Besides, the “Calponin1 expression (immunoblotting) versus TGFβ1 alone” value in [13] was “significant decrease”.

(Values after patent US20240391942A1 (priority 2021, published 2024).)
